Earlier results in US8124634B2, “CB1 receptor modulators” (7TM Pharma A/S, priority 2006, dated 2012).

The chains behind the UniProt entries cited, without tags or fusion partners.
UniProt P47746, whole entry: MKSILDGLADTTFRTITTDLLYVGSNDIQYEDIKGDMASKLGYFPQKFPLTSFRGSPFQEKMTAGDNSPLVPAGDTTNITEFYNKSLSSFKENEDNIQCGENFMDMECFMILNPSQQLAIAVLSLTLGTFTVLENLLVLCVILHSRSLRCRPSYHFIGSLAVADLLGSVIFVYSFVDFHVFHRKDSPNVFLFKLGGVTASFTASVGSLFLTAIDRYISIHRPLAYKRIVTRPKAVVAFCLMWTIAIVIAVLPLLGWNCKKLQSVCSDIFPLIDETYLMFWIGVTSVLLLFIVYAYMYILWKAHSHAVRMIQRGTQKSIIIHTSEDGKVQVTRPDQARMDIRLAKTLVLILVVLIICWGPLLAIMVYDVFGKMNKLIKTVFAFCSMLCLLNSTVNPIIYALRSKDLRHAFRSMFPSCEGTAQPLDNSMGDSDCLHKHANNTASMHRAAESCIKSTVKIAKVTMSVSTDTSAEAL

Biological target: CB1 (cannabinoid receptor 1) (Mus musculus, UniProt P47746)
Conditions: cited from earlier work

**Q.** Which “effect in the gastrointestinal transit model” value does the source give for `Cc1c(C(=O)NN2CCCCC2)nn(-c2ccc(Cl)cc2Cl)c1-c1ccc(Cl)cc1` [Rimonabant] here?
**A.** clear dose dependent effect
